# Tests used:
# The chains behind the UniProt entries cited, without tags or fusion partners. Residues count along the entry.
# UniProt P04629, 440-796 limits assumed: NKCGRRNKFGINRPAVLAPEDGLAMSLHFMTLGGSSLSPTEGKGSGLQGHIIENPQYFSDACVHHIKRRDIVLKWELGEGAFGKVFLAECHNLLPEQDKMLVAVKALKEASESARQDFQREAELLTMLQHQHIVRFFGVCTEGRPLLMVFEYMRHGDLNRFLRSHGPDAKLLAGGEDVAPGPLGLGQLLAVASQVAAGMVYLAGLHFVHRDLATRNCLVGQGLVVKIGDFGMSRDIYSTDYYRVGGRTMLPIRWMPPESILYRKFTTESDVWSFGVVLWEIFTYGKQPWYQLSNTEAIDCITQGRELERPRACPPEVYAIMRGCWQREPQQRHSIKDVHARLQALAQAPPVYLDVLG
# UniProt Q16620, 455-822 limits assumed: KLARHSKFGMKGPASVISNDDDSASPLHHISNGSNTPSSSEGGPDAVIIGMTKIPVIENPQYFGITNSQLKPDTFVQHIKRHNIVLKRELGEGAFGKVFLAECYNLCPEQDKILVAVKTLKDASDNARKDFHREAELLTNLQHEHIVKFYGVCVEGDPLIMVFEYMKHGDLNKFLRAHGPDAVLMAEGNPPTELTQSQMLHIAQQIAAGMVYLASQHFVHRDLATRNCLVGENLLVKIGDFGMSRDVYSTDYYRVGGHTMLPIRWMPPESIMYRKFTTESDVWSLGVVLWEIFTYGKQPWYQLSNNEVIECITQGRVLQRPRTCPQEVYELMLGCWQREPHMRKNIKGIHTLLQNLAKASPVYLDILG
# [1] = biological target: TrkA (or NTRK1) (Homo sapiens, UniProt P04629); assay: In vitro kinase glo plus-based kinase assay, TrkA; format: biochemical; settings: read-out: IC50 (μM) TrkA; comparative experiments; 30 μM ATP
# [2] = biological target: TrkB (or NTRK2) (Homo sapiens, UniProt Q16620); assay: In vitro kinase glo plus-based kinase assay, TrkB; format: biochemical; settings: read-out: IC50 (μM) TrkB; comparative experiments; 40 μM ATP
smiles,measurement,setting,value
CN1CCN(c2ccc(C(=O)Nc3n[nH]c4nc(Sc5ccc(F)cc5F)ccc34)cc2)CC1,IC50,[1],0.04 µM
same,IC50,[2],0.048 µM

# Reference: patent publication US9381195B2, “Derivatives of azaindazole or diazaindazole type for treating pain” (PIERRE FABRE MEDICAMENT, priority 2012, dated 2016)
